The source of these data is patent US6444477B1, “Assay method for detecting 5-HT2B antagonists” (Pharmagene Laboratories Limited, priority 2000, dated 2002).

Chains of the proteins cited; added tags and fusions are not shown.
UniProt P41595, whole entry: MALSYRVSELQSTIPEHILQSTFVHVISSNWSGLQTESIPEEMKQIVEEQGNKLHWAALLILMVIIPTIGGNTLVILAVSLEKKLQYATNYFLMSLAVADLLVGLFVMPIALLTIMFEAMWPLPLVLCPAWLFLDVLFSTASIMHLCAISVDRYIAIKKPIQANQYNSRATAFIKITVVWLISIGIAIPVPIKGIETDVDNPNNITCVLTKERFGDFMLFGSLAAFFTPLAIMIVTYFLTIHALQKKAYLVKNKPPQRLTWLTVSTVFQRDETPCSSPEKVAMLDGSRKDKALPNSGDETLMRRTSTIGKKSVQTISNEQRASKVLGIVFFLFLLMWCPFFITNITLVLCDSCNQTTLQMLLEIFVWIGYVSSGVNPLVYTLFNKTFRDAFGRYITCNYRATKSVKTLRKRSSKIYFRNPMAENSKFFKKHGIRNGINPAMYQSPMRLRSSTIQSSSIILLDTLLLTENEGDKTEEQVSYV
UniProt Q13639, whole entry: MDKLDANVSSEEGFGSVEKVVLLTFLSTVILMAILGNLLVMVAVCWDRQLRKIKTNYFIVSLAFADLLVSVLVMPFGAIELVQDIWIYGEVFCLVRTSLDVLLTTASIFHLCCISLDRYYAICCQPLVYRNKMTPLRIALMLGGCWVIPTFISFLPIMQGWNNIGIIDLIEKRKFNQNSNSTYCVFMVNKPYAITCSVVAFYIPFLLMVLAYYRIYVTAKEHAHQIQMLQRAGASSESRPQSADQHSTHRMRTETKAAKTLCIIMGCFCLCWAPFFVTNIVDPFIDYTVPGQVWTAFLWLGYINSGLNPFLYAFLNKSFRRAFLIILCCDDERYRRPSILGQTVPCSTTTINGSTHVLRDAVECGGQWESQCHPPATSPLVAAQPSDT

Molecules are shown by their SMILES.

In assay [1] the target is 5-HT receptor in human colon longitudinal muscle (Homo sapiens, UniProt P41595). Kind of assay: 5-HT-induced potentiation of electrically stimulated contractions of human colon longitudinal muscle strips. It is filed as cell-based.
For the next assay, the target named is 5-HT2B receptor (Homo sapiens, UniProt P41595). Particulars: cited from earlier work.
The next assay concerns the target human 5-HT4 receptor (Homo sapiens, UniProt Q13639). Particulars: cited from earlier work.

On to `Cc1[nH]c2ccc(O)cc2c1CCN`, for which the “pEC50 for agonists at the 5-HT receptor in colon” value in assay [1] is 7.0 ± 0.4. For the same compound, the “pEC50 for agonists at human 5-HT2B receptor” value at 5-HT2B receptor is listed as 6.7. Besides, on human 5-HT4 receptor, the “pEC50 for agonists at human 5-HT4 receptor” value is 6.0.
